Target: EGFR on A431 cells (human) (UniProt P00533)
Test: cell-based or functional assay

Inhibition Of A431 Proliferation (% Inhibition At 2.4 nM Ab/DVD): 14%
Inhibition Of A431 Proliferation (% Inhibition At 21.6 nM Ab/DVD): 49%
Inhibition Of EGFR Phosphorylation (% Inhibition At 60 nM Ab/DVD): 54%
Substance: AB033 (anti-EGFR (seq. 2) parent antibody)

— patent US20100260668A1
